The test deals with Epidermal growth factor receptor (Homo sapiens, UniProt P00533).

Sequences of proteins named here, by UniProt entry; tags and fusion partners are left off.
UniProt P00533, whole entry: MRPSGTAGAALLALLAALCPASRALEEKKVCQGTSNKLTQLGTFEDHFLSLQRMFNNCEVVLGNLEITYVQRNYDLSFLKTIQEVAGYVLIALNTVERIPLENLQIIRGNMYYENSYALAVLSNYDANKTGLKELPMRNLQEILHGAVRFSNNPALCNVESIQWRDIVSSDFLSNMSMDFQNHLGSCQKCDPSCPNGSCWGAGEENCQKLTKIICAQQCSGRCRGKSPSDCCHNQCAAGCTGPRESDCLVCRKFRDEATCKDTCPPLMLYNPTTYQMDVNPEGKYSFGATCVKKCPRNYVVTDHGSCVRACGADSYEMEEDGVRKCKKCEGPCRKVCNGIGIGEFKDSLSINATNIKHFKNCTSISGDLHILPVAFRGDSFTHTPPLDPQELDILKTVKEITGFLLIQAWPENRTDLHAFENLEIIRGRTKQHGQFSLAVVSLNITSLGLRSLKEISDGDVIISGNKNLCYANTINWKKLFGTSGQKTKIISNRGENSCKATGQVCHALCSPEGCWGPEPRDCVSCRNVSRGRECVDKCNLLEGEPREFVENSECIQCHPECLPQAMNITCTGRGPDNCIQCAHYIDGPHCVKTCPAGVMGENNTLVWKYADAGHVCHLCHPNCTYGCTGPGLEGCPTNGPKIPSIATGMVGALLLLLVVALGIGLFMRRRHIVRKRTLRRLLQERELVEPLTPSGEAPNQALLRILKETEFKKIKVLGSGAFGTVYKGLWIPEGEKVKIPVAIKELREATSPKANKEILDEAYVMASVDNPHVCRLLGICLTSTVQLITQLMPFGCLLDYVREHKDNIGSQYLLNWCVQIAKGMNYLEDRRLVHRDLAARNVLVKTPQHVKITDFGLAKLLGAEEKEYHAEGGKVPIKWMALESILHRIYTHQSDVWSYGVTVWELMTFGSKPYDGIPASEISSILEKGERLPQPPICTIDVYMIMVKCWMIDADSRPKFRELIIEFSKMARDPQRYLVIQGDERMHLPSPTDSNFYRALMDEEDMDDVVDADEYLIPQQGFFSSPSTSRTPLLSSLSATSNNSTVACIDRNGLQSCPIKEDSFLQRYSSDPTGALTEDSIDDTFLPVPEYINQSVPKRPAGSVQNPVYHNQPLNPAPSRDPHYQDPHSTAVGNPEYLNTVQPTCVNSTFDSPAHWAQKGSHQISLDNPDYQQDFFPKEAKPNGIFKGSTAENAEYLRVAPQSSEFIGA

By IC50 is commonly meant the midpoint of a concentration-inhibition curve. Read a low IC50 as inhibition by little substance. In turn, `C=CC(=O)Nc1ccccc1Nc1ncnc2cc(OC)c(OCCN3CCOCC3)cc12` yielded a concentration for half-maximal inhibition (IC50) of 0.0244 µM.

For the origin of these results see ChEMBL document CHEMBL5230100, “Novel quinazoline-based EGFR kinase inhibitors: A review focussing on SAR and molecular docking studies (2015-2019)” (Eur J Med Chem, 2020).
